The target of this experiment is Thrombin (Homo sapiens, UniProt P00734). Put plainly: Thrombin inhibition in vitro (Kiapp). It counts as biochemical. The following applies: FIG. 1, read-out: inhibition constant (thrombin). The method, then:
The inhibitory potency of Compound 1 on thrombin was tested in vitro. Argatroban, a known small molecule direct thrombin inhibitor, was used as a control.

The text below walks through data of patent US12630506B2, “Direct thrombin inhibitors and methods of use thereof” (Baylor College of Medicine, priority 2020, dated 2026).

SMILES strings stand for the structures.

With `CC1CNc2c(cccc2S(=O)(=O)N[C@@H](CCCNC(=N)N)C(=O)N2CC[C@@H](C)C[C@@H]2C(=O)O)C1` (stereo partly shown) [Argatroban, reference compound], the Ki was determined as 9 nM.
